In patent US7479478B2, “Human parathyroid hormone modifications, preparation and use” (The General Hospital Corporation, priority 1998, dated 2009):

Columns and labels:
human PTH-1 receptors [1] = biological target: T1, human PTH-1 receptors (Homo sapiens, UniProt Q03431); experiment: PLC activation (IP3 formation) in HKRK B7 cells; format: cell-based; settings: maximal concentrations of hPTH-(1-34), basal 898±142
T1 construct: expressed in transfected cells
T1 sequence (Q03431 27-593): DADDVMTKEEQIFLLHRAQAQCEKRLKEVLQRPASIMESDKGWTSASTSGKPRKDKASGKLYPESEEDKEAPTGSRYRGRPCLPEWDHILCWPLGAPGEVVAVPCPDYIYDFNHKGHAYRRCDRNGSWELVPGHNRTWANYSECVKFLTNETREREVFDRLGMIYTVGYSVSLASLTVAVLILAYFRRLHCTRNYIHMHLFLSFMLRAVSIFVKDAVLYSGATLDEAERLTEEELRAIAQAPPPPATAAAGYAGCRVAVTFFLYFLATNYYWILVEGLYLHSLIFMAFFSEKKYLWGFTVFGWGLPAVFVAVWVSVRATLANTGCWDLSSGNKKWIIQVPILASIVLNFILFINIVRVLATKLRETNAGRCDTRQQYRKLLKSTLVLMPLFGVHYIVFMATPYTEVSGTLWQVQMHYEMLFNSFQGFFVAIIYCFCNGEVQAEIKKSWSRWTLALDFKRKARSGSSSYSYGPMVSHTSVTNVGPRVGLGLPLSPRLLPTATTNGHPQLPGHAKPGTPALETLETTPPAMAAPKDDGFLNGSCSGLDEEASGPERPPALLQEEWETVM
Method: (§1) HKRK B7 or EW5 cells (32), subclones of LLC-PKI renal epithelial cells that stably express human or rat PTH-1 receptors (950,000 and 320,000 receptors/cell, respectively), were maintained under 5% CO2 in air in Dulbecco's modified essential medium containing 7% fetal bovine serum (FBS) and 1% penicillin/streptomycin (GIBCO-BRL, Grand Island, N.Y.). HEK-293 and COS-7 cells were cultured similarly, except that 10% FBS was used in the medium. Cells were seeded into 24-well plates two days before assay at a density of 2-2.5×10^5 cells/well (HKRK B7 or EW 5 cells) or 6×10^5 cells/well (in 6-well plates) (HEK-293 cells). In experiments involving HEK-293 cells, DNA transfections were performed 24 hr after plating and inositol radiolabel was added 24 hr thereafter (see below). COS-7 cell transfections were performed as previously described (Gardella, T. J., et al., Endocrinology 132(5):2024-2030 (1993))
PLC was activated by PTH agonists in the presence of 30 mM LiCl at 37° C. for 30 min after 16 hr of labeling with [^3H]myo-inositol (3 uCi/ml) in serum-free medium containing 0.1% bovine serum albumin. The reactions were stopped by rapid aspiration and addition of cold 5% TCA. Water-soluble radiolabeled inositol trisphosphate (IP3) was isolated after ether extraction by ion-exchange chromatography (Guo, J., et al., Endocrinology 136(9):3884-3891 (1995)). […]

human PTH-1 receptors [2] = biological target: T1, human PTH-1 receptors; experiment: Radioligand competition binding with 125I-[Nle8,21,Tyr34]rat PTH-(1-34) in HKRK B7 cells; settings: maximal concentrations of hPTH-(1-34), without competitor 25520±1909
Method: as §1, with “(1993)) Radioligand competition binding assays were performed at 2-8° C. for 6 hr using ^125I-[Nle^8,21,[…]]rat PTH-(1-34) (100,000 cpm/well) in the presence or absence of non-radioactive hPTH-(1-34) analogs. Cell layers were washed three times before solubilization for determination of cell-associated radioactivity.” for “(1993))”

human PTH-1 receptors [3] = biological target: T1, human PTH-1 receptors; experiment: Intracellular cAMP accumulation (adenylyl cyclase, AC, activation) in HKRK B7 cells; format: cell-based; settings: maximal concentrations of hPTH-(1-34), basal 12 ±4
Method: HKRK B7 or EW5 cells (32), subclones of LLC-PKI renal epithelial cells that stably express human or rat PTH-1 receptors (950,000 and 320,000 receptors/cell, respectively), were maintained under 5% CO2 in air in Dulbecco's modified essential medium containing 7% fetal bovine serum (FBS) and 1% penicillin/streptomycin (GIBCO-BRL, Grand Island, N.Y.). HEK-293 and COS-7 cells were cultured similarly, except that 10% FBS was used in the medium. Cells were seeded into 24-well plates two days before assay at a density of 2-2.5×10^5 cells/well (HKRK B7 or EW 5 cells) or 6×10^5 cells/well (in 6-well plates) (HEK-293 cells). […] COS-7 cell transfections were performed as previously described (Gardella, T. J., et al., Endocrinology 132(5):2024-2030 (1993)) Intracellular cAMP accumulation, PLC activation and PTHR binding affinity were measured as previously reported (Bringhurst, F. R., et al., Endocrinology 132(5):2090-2098 (1993); Guo, J., et al., Endocrinology 136(9):3884-3891 (1995)). Intracellular cAMP accumulation was measured in extracts of cells that were exposed to human PTH peptides in the presence of isobutylmethyxanthine (IBMX, 1 mM) at 37° C. for 15 min. After terminating the reactions by aspiration and freezing in liquid nitrogen, cell monolayers were extracted with 50 mM HCl and cAMP was measured using a radioimmunoassay kit (Dupont-New England Nuclear, Boston, Mass.).

## CC[C@H](C)[C@H](NC(=O)[C@H](CCC(=O)O)NC(=O)[C@H](CO)NC(=O)[C@@H](NC(=O)[C@@H](N)CO)C(C)C)C(=O)N[C@@H](CCC(N)=O)C(=O)N[C@@H](CC(C)C)C(=O)N[C@@H](CCSC)C(=O)N[C@@H](Cc1c[nH]cn1)C(=O)N[C@@H](CC(N)=O)C(=O)N[C@@H](CC(C)C)C(=O)NCC(=O)N[C@@H](CCCCN)C(=O)N[C@@H](Cc1c[nH]cn1)C(=O)N[C@@H](CC(C)C)C(=O)N[C@@H](CC(N)=O)C(=O)N[C@@H](CO)C(=O)N[C@@H](CCSC)C(=O)N[C@@H](CCC(=O)O)C(=O)N[C@@H](CCCNC(=N)N)C(=O)N[C@H](C(=O)N[C@@H](CCC(=O)O)C(=O)N[C@@H](Cc1c[nH]c2ccccc12)C(=O)N[C@@H](CC(C)C)C(=O)N[C@@H](CCCNC(=N)N)C(=O)N[C@@H](CCCCN)C(=O)N[C@@H](CCCCN)C(=O)N[C@@H](CC(C)C)C(=O)N[C@@H](CCC(N)=O)C(=O)N[C@@H](CC(=O)O)C(=O)N[C@H](C(=O)N[C@@H](Cc1c[nH]cn1)C(=O)N[C@@H](CC(N)=O)C(=O)N[C@@H](Cc1ccc(O)cc1)C(N)=O)C(C)C)C(C)C [hPTH-(1-34), reference compound]
Human PTH-1 receptors [1]
  IP3 formation, average level: 1908 ±251 cpm/well
Human PTH-1 receptors [2]
  radioligand binding, average level: 956±135 cpm/well
Human PTH-1 receptors [3]
  cAMP accumulation, average level: 207±37 pmoles/well/15 min
